{"sequences": {"note": "Protein sequences, listed by entry. Tags and fused reporters are not part of them.", "UniProt Q9Y5S2, whole entry": "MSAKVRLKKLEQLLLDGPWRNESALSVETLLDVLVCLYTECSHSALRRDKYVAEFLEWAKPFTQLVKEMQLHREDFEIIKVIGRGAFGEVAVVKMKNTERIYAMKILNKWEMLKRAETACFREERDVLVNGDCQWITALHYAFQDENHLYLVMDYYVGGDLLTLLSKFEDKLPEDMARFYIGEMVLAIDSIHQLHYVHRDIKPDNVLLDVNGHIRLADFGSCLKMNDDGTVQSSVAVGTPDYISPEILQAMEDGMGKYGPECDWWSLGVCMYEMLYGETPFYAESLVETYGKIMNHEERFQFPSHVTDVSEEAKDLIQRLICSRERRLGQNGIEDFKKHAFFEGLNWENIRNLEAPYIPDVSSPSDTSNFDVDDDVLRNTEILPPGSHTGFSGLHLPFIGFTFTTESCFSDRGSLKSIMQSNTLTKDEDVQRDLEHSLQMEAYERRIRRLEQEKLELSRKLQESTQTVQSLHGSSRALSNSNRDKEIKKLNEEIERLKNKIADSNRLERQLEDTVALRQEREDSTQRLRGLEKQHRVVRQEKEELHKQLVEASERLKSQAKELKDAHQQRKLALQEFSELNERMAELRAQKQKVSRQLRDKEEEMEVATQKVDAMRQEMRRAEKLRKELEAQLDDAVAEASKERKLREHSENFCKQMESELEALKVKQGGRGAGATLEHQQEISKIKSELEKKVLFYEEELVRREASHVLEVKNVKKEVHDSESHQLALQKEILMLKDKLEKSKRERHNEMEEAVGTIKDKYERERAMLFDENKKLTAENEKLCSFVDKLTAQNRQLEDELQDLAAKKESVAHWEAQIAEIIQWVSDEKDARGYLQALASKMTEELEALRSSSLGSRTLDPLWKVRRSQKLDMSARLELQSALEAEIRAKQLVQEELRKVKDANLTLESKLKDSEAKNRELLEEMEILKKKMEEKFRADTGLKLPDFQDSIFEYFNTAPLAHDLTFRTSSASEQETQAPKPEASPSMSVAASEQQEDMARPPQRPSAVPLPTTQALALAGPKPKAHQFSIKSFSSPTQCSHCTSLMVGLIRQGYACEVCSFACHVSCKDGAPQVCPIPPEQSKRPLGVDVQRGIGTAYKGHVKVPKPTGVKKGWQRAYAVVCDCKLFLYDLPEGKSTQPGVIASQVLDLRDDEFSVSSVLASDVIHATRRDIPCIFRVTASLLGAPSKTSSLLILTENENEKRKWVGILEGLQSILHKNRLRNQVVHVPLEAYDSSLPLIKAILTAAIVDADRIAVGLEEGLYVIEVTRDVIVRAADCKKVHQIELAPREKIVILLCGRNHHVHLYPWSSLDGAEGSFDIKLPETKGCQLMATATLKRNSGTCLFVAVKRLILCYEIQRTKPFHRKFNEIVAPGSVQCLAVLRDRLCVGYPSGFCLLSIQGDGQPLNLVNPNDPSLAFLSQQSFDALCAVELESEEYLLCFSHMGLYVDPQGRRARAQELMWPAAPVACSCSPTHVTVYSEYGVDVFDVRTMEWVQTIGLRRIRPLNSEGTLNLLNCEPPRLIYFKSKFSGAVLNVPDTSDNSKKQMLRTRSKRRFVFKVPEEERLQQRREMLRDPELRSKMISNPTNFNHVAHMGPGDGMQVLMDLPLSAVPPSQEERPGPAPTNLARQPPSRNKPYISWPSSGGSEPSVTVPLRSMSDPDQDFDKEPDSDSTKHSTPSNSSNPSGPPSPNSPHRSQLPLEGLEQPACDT"}, "source": "patent US11447505B1", "about": "“Pyrrolo[2,3-b]pyridine compounds and their use in the treatment of cancer” (priority 2017, dated 2022)", "biological_target": "MRCKβ (Homo sapiens (Human), UniProt Q9Y5S2)", "assay": "MRCKβ kinase assay (IMAP fluorescence polarization)", "assay_type": "biochemical", "conditions": "read-out: MRCK-B Average Ki; 1 μM ATP", "note": "pKi: −log10 of the molar value.", "data": [{"smiles": "CNC(=O)C1CCN(c2ccnc3[nH]cc(-c4cncnc4)c23)CC1", "values": [{"measurement": "pKi", "value": 7.68}]}]}
